For test [1], the system named is HOM2 cells. The note with it: inhibition of cysteine proteases with leupeptin (Neefjes and Ploegh 1992); cited from earlier work.
For test [2], the system named is HOM2 cells. Nature of the test: 35S-methionine/cysteine pulse/chase of HOM2 cells, immunoprecipitation of class II with Tu36, SDS-PAGE (Ii processing and SDS-stable peptide-loaded αβ dimers).

As for `CC(=O)N[C@@H](CC(C)C)C(=O)N[C@@H](CC(C)C)C(=O)N[C@H](C=O)CCCNC(=N)N` [leupeptin], the “SDS-stable complexes (peptide-loaded αβ-dimers)” value in test [1] is on record as “decrease”.

On to `CC(C)[C@H](NC(=O)[C@H](Cc1ccccc1)C[C@H](O)[C@H](Cc1ccccc1)NC(=O)OC(C)(C)C)C(=O)N[C@@H](Cc1ccccc1)C(=O)N1CCOCC1` [CGP 53437], for which, in test [2] (5 µM or 50 µM CGP 53437, chase 5 hours), the “accumulation of Ii fragments” value was “did not result in accumulation of Ii fragments”.

On to `CCOC(=O)[C@H]1O[C@@H]1C(=O)N[C@@H](CC(C)C)C(=O)NCCC(C)C` (relative stereo) [E64D], for which the “buildup of class II-associated Ii fragment” value in test [2] (E64D, concentration not stated in Example 2) is recorded as “buildup of a class II-associated 23 kDa Ii fragment”.

As for `CC(C)C[C@H](NC(=O)N1CCOCC1)C(=O)N[C@H](/C=C/S(=O)(=O)c1ccccc1)CCc1ccccc1` [LHVS, morpholinurea-leucine-homophenylalanine-vinylsulfone phenyl], in test [2] (1 nM and 5 nM LHVS, chase 5 hours), the “accumulation of class II-associated Ii fragment” value is recorded as “accumulation of a class II-associated 13 kDa Ii fragment”.

(Values after patent EP1400530A1, “Suppression of immune response via inhibition of cathepsin S” (MASSACHUSETTS INSTITUTE OF TECHNOLOGY, priority 1996, dated 1997).)
